How the values were obtained:
[1] = target: T1, PARP cleavage activity in apoptotic osteosarcoma cell extracts (Homo sapiens, UniProt P42574); assay: [35S]PARP cleavage by cytosolic extracts of apoptotic osteosarcoma cells; assay type: biochemical
T1 construct: 10 μg protein from the cytosol fraction of apoptotic osteosarcoma cells (from 7 day, post-confluent cultures); endogenous in cells; host or cells: human osteosarcoma cells 143.98.2 (ATCC CRL 11226), 7 day post-confluent (apoptotic), cytosol fraction
T1 sequence (P42574 29-175 limits assumed): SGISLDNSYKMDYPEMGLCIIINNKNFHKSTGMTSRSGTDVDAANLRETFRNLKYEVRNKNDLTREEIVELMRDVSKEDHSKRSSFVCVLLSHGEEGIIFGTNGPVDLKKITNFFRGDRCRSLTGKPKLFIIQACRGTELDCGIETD
T1 sequence (P42574 176-277 limits assumed): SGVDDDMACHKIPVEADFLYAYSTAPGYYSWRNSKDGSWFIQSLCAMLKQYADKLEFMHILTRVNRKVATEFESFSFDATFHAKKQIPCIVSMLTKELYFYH

[2] = target: T2, apopain/CPP32 (Homo sapiens, UniProt P42574); assay: continuous fluorometric assay with Ac-DEVD-AMC and purified apopain; assay type: biochemical
T2 construct: cleavage between Asp^28 -Ser^29 and Asp^175 -Ser^176; cleavage sites which yield the p17 and p12 subunits from the CPP32 proenzyme; endogenous in cells; host or cells: THP-1 cells (ATCC TIB 202)
T2 sequence (P42574 29-175 limits assumed): T1 sequence (P42574 29-175 limits assumed)
T2 sequence (P42574 176-277 limits assumed): T1 sequence (P42574 176-277 limits assumed)

## CC(=O)N[C@@H](CC(=O)O)C(=O)N[C@@H](CCC(=O)O)C(=O)N[C@H](C(=O)NC(C=O)CC(=O)O)C(C)C (stereo partly drawn) [Ac-DEVD-CHO, N-(N-Acetyl-L-aspartyl-L-glutamyl-L-valinyl)-3-amino-3-formylpropionic acid]
[1]
  IC50: 200 pM
[2]
  Ki: < 1000 pM

From patent US5798442A, “Peptidyl derivatives as inhibitors of pro-apoptotic cysteine proteinases” (Merck Frosst Canada, Inc., priority 1995, dated 1998)
